Protein sequences, listed by entry. Tags and fused reporters are not part of them.
UniProt P47900, whole entry R287A: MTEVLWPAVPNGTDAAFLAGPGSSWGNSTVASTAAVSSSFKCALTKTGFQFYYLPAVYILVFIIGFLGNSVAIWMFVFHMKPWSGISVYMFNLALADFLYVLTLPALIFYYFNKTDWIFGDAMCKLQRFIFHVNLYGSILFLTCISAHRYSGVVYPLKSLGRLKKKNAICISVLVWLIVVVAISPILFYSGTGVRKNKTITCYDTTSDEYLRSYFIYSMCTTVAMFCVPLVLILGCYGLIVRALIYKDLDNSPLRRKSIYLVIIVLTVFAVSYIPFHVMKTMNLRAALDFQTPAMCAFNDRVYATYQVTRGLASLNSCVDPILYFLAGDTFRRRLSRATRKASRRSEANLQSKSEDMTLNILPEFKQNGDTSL
UniProt P47900, whole entry F131A: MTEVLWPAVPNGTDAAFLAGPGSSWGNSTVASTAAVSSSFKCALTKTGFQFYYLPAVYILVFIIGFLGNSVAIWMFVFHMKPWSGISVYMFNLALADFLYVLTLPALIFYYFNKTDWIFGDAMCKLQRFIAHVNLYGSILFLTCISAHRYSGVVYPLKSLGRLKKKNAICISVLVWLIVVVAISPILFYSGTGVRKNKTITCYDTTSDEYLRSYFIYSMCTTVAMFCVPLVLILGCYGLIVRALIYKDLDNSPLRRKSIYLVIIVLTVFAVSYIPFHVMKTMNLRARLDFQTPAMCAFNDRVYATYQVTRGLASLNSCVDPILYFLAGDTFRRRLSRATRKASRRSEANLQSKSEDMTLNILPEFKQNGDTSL
UniProt P47900, whole entry H277A: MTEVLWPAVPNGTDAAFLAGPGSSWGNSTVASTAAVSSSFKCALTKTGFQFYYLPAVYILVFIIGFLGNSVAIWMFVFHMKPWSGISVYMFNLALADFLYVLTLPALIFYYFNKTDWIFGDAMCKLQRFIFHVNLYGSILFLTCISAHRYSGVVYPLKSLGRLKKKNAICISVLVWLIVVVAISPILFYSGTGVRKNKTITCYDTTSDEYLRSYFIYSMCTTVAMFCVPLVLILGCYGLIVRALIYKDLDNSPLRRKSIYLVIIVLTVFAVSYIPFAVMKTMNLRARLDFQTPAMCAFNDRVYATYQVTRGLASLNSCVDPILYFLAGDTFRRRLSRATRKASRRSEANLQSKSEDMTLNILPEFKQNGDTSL
UniProt P47900, whole entry E209A: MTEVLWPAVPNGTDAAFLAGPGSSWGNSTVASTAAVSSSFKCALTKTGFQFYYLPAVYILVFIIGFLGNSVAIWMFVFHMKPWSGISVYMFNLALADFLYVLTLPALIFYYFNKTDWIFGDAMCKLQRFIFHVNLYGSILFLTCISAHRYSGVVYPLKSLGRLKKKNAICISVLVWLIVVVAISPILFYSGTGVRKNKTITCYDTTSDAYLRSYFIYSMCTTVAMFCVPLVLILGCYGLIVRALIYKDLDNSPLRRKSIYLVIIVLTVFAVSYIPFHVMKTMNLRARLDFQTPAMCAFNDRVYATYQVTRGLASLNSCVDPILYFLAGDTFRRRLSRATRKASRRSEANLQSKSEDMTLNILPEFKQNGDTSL
UniProt P47900, whole entry C202A: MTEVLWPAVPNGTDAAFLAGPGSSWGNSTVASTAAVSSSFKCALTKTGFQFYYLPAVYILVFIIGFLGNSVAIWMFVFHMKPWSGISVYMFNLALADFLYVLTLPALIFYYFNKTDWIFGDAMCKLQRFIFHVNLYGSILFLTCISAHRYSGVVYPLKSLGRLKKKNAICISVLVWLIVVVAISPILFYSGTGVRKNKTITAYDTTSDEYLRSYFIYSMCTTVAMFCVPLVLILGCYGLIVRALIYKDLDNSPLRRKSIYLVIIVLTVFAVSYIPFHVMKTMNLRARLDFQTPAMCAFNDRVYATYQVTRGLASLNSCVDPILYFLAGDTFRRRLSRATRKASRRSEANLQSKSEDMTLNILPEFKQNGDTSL
UniProt P47900, whole entry K198A: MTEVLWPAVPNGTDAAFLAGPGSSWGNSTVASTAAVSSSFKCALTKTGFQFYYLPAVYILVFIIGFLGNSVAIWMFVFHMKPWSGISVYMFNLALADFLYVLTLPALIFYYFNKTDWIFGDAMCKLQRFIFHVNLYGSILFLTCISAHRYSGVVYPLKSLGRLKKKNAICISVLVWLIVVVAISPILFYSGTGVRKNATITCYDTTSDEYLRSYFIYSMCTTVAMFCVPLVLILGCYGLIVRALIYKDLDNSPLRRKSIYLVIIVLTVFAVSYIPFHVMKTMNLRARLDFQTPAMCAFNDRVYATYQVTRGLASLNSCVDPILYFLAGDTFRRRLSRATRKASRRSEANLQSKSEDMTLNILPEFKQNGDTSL
UniProt P47900, whole entry R287K: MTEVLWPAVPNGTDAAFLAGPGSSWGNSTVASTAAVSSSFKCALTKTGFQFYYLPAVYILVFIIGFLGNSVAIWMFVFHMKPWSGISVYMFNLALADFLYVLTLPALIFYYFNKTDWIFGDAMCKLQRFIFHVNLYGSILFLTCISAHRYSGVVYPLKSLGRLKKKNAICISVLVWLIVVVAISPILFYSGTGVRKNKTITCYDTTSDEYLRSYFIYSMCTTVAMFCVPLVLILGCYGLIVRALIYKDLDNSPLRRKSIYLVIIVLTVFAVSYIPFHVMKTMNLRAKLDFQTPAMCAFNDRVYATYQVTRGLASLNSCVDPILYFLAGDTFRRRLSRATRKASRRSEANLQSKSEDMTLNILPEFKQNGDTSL
UniProt P47900, whole entry Y306F: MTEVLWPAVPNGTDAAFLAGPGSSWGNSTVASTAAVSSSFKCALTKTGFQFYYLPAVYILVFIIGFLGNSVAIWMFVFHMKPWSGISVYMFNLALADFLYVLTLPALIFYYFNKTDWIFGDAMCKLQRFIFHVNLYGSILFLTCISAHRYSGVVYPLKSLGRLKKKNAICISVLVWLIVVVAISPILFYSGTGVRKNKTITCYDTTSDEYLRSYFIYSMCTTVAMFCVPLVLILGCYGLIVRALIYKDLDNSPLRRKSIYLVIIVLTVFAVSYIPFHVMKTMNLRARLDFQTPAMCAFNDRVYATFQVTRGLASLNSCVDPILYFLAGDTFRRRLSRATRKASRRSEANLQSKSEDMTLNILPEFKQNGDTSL
UniProt P47900, whole entry K196A: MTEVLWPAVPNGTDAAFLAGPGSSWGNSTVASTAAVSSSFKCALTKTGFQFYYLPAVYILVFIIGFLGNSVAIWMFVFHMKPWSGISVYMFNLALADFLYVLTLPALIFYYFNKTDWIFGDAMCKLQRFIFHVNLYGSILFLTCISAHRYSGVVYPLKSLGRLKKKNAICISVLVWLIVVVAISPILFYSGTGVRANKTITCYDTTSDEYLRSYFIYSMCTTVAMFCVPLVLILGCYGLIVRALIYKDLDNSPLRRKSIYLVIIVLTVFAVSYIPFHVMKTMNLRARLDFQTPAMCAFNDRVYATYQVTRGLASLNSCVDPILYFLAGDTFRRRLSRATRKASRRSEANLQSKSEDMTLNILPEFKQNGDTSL
UniProt P47900, whole entry Y203A: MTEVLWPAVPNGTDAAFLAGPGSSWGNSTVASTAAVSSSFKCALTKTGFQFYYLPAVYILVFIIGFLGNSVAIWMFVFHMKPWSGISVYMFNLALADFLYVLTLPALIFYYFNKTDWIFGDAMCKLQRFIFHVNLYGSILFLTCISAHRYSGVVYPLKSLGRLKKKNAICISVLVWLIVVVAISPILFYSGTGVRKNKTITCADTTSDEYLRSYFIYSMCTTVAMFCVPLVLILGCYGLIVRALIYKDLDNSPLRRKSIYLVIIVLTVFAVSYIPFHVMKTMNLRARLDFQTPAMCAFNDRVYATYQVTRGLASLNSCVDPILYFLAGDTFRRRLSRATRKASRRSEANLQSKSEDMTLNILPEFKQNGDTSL
UniProt P47900, whole entry Y273F: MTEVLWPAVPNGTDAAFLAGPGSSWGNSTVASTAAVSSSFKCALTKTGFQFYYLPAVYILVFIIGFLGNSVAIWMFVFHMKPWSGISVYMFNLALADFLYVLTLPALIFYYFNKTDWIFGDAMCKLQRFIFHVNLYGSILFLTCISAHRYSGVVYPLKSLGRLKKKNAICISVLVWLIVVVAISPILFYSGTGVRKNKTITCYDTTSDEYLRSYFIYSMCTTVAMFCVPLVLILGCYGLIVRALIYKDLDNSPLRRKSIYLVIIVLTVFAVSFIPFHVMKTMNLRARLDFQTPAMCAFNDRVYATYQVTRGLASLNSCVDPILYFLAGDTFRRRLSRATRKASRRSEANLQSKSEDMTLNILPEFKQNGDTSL
UniProt P47900, whole entry D204N: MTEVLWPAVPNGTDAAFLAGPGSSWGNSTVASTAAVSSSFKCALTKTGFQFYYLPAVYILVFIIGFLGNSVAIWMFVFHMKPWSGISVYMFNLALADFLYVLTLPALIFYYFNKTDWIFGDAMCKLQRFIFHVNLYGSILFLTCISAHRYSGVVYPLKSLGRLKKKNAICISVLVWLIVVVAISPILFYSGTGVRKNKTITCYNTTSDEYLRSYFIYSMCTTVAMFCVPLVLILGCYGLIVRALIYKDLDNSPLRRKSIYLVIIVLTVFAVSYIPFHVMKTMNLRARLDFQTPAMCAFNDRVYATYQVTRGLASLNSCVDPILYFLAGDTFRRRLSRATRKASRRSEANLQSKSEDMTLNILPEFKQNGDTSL
UniProt P47900, whole entry R128A: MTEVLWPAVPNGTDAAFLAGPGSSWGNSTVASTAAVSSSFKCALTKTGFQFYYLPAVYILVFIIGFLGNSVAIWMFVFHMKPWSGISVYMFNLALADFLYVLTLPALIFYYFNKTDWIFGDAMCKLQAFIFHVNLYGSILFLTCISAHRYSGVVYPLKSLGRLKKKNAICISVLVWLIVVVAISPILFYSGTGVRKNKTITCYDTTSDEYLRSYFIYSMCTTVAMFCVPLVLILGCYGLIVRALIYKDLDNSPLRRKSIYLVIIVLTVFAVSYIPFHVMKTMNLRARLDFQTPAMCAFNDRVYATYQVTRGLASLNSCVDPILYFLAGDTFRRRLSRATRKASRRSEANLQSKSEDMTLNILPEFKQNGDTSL
UniProt P47900, whole entry F226A: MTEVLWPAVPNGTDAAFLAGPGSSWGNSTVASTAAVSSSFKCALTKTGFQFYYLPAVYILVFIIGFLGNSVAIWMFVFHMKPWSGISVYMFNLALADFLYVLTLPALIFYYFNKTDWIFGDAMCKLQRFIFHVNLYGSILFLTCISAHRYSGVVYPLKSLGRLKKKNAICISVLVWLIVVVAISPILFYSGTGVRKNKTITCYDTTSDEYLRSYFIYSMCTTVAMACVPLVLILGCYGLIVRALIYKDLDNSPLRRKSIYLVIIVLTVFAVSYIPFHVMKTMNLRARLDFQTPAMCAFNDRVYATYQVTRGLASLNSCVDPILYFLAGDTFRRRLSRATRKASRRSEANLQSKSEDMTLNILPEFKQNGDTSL
UniProt P47900, whole entry T221A: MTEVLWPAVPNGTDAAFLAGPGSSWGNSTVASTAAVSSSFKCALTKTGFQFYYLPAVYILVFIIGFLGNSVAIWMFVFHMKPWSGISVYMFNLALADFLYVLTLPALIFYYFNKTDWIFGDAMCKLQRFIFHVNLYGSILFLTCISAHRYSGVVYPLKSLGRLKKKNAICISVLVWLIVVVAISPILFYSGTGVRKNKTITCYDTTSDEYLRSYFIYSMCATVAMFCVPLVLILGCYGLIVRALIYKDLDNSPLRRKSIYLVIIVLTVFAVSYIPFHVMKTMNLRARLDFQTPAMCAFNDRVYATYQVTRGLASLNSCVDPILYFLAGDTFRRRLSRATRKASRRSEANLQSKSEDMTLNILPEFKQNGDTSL
UniProt P47900, whole entry S314A: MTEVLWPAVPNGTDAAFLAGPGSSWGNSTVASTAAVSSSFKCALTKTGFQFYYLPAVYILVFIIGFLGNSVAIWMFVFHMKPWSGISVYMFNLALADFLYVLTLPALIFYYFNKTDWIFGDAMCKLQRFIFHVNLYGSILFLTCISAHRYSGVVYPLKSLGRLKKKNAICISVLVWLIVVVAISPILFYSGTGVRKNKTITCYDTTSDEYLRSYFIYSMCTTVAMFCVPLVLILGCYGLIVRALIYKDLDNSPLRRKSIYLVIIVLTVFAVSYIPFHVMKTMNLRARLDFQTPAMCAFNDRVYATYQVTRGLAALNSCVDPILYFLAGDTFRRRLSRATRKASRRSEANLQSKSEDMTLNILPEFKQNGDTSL
UniProt P47900, whole entry Y136A: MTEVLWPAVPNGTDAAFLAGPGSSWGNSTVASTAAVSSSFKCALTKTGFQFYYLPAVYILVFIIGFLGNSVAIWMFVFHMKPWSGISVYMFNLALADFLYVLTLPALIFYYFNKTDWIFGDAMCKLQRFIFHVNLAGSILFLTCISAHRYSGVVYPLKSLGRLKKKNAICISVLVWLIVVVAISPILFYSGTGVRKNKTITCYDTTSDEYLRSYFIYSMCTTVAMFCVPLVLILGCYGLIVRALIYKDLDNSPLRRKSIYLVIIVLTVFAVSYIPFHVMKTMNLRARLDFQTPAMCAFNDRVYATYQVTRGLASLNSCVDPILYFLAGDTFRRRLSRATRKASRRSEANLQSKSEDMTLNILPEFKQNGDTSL

In ChEMBL document CHEMBL1137222, “Architecture of P2Y nucleotide receptors: structural comparison based on sequence analysis, mutagenesis, and homology modeling” (J Med Chem, 2004):

Legend:
Type in all cases: cell-based
P2Y purinoceptor 1 [1] = target: P2Y purinoceptor 1 (Homo sapiens, UniProt P47900, R287A); assay: Effective concentration required for the activation of human R287A mutant strain P2Y1 receptors expressed in COS-7 cells for the accumulation of inositol phosphate
P2Y purinoceptor 1 [2] = target: P2Y purinoceptor 1 (Homo sapiens, UniProt P47900, F131A); assay: Effective concentration required for the activation of human F131A mutant strain P2Y1 receptors expressed in COS-7 cells for the accumulation of inositol phosphate
P2Y purinoceptor 1 [3] = target: P2Y purinoceptor 1 (Homo sapiens, UniProt P47900, H277A); assay: Effective concentration required for the activation of human H277A mutant strain P2Y1 receptors expressed in COS-7 cells for the accumulation of inositol phosphate
P2Y purinoceptor 1 [4] = target: P2Y purinoceptor 1 (Homo sapiens, UniProt P47900, E209A); assay: Effective concentration required for the activation of human E209A mutant strain P2Y1 receptors expressed in COS-7 cells for the accumulation of inositol phosphate
P2Y purinoceptor 1 [5] = target: P2Y purinoceptor 1 (Homo sapiens, UniProt P47900, C202A); assay: Effective concentration required for the activation of human C202A mutant strain P2Y1 receptors expressed in COS-7 cells for the accumulation of inositol phosphate
P2Y purinoceptor 1 [6] = target: P2Y purinoceptor 1 (Homo sapiens, UniProt P47900, K198A); assay: Effective concentration required for the activation of human K198A mutant strain P2Y1 receptors expressed in COS-7 cells for the accumulation of inositol phosphate
P2Y purinoceptor 1 [7] = target: P2Y purinoceptor 1 (Homo sapiens, UniProt P47900, R287K); assay: Effective concentration required for the activation of human R287K mutant strain P2Y1 receptors expressed in COS-7 cells for the accumulation of inositol phosphate
P2Y purinoceptor 1 [8] = target: T1, P2Y purinoceptor 1 (Homo sapiens, UniProt P47900, Y306F); assay: Effective concentration to activate human Y306F mutant strain P2Y1 receptor expressed in COS-7 cells for the accumulation of inositol phosphate
P2Y purinoceptor 1 [9] = target: P2Y purinoceptor 1 (Homo sapiens, UniProt P47900, K196A); assay: Effective concentration required for the activation of human K196A mutant strain P2Y1 receptors expressed in COS-7 cells for the accumulation of inositol phosphate
P2Y purinoceptor 1 [10] = target: P2Y purinoceptor 1 (Homo sapiens, UniProt P47900, Y203A); assay: Inhibition concentration required against human Y203A (EL2) mutant strain P2Y1 receptor expressed in COS-7 cells is determined using [3H]MRS2279 as radioligand
P2Y purinoceptor 1 [11] = target: P2Y purinoceptor 1 (Homo sapiens, UniProt P47900, Y273F); assay: Inhibition concentration required against human Y273F mutant strain P2Y1 receptor expressed in COS-7 cells is determined using [3H]MRS2279 as radioligand
P2Y purinoceptor 1 [12] = target: P2Y purinoceptor 1 (Homo sapiens, UniProt P47900, D204N); assay: Effective concentration required for the activation of human D204N mutant strain P2Y1 receptors expressed in COS-7 cells for the accumulation of inositol phosphate
P2Y purinoceptor 1 [13] = target: P2Y purinoceptor 1 (Homo sapiens, UniProt P47900, R128A); assay: Effective concentration required for the activation of human R128A mutant strain P2Y1 receptors expressed in COS-7 cells for the accumulation of inositol phosphate
P2Y purinoceptor 1 [14] = target: P2Y purinoceptor 1 (Homo sapiens, UniProt P47900, F226A); assay: Effective concentration required for the activation of human F226A mutant strain P2Y1 receptors expressed in COS-7 cells for the accumulation of inositol phosphate
P2Y purinoceptor 1 [15] = target: P2Y purinoceptor 1 (Homo sapiens, UniProt P47900, T221A); assay: Effective concentration required for the activation of human T221A mutant strain P2Y1 receptors expressed in COS-7 cells for the accumulation of inositol phosphate
P2Y purinoceptor 1 [16] = target: P2Y purinoceptor 1 (Homo sapiens, UniProt P47900, S314A); assay: Effective concentration required for the activation of human S314A mutant strain P2Y1 receptors expressed in COS-7 cells for the accumulation of inositol phosphate
P2Y purinoceptor 1 [17] = target: P2Y purinoceptor 1 (Homo sapiens, UniProt P47900, Y136A); assay: Effective concentration required for the activation of human Y136A mutant strain P2Y1 receptors expressed in COS-7 cells for the accumulation of inositol phosphate
P2Y purinoceptor 1 [18] = target: P2Y purinoceptor 1 (Homo sapiens, UniProt P47900, S317A); assay: Effective concentration required for the activation of human S317A mutant strain P2Y1 receptors expressed in COS-7 cells for the accumulation of inositol phosphate
P2Y purinoceptor 1 [19] = target: P2Y purinoceptor 1 (Homo sapiens, UniProt P47900, K280A); assay: Effective concentration required for the activation of human K280A mutant strain P2Y1 receptors expressed in COS-7 cells for the accumulation of inositol phosphate
P2Y purinoceptor 1 [20] = target: P2Y purinoceptor 1 (Homo sapiens, UniProt P47900, Y306A); assay: Effective concentration to activate human Y306A mutant strain P2Y1 receptor expressed in COS-7 cells for the accumulation of inositol phosphate
P2Y purinoceptor 1 [21] = target: P2Y purinoceptor 1 (Homo sapiens, UniProt P47900, R287Q); assay: Effective concentration required for the activation of human R287Q mutant strain P2Y1 receptors expressed in COS-7 cells for the accumulation of inositol phosphate
P2Y purinoceptor 1 [22] = target: P2Y purinoceptor 1 (Homo sapiens, UniProt P47900, C296A); assay: Effective concentration required for the activation of human C296A mutant strain P2Y1 receptors expressed in COS-7 cells for the accumulation of inositol phosphate
P2Y purinoceptor 1 [23] = target: P2Y purinoceptor 1 (Homo sapiens, UniProt P47900, E209R); assay: Effective concentration required for the activation of human E209R mutant strain P2Y1 receptors expressed in COS-7 cells for the accumulation of inositol phosphate
P2Y purinoceptor 1 [24] = target: P2Y purinoceptor 1 (Homo sapiens, UniProt P47900, D300A); assay: Effective concentration required for the activation of human D300A mutant strain P2Y1 receptors expressed in COS-7 cells for the accumulation of inositol phosphate
P2Y purinoceptor 1 [25] = target: P2Y purinoceptor 1 (Homo sapiens, UniProt P47900, Y273A); assay: Effective concentration to activate human Y273A mutant strain P2Y1 receptor expressed in COS-7 cells for the accumulation of inositol phosphate
P2Y purinoceptor 1 [26] = target: T1, P2Y purinoceptor 1; assay: Inhibition concentration required against human Y306F mutant strain P2Y1 receptor expressed in COS-7 cells is determined using [3H]MRS2279 as radioligand
P2Y purinoceptor 1 [27] = target: P2Y purinoceptor 1 (Homo sapiens, UniProt P47900, E209D); assay: Effective concentration required for the activation of human E209D mutant strain P2Y1 receptors expressed in COS-7 cells for the accumulation of inositol phosphate

SMILES: CSc1nc(N)c2ncn([C@@H]3O[C@H](COP(=O)(O)OP(=O)(O)O)[C@@H](O)[C@H]3O)c2n1
- pEC50 (P2Y purinoceptor 1 [1]): 4.83
- pEC50 (P2Y purinoceptor 1 [2]): 7.74
- pEC50 (P2Y purinoceptor 1 [3]): 7.00
- pEC50 (P2Y purinoceptor 1 [4]): 4.76
- pEC50 (P2Y purinoceptor 1 [5]): < 4.00
- pEC50 (P2Y purinoceptor 1 [6]): 7.76
- pEC50 (P2Y purinoceptor 1 [7]): 7.13
- pEC50 (P2Y purinoceptor 1 [8]): 7.72
- pEC50 (P2Y purinoceptor 1 [9]): 8.60
- pIC50 (P2Y purinoceptor 1 [10]): < 5.00
- pIC50 (P2Y purinoceptor 1 [11]): 7.40
- pEC50 (P2Y purinoceptor 1 [12]): 6.23
- pEC50 (P2Y purinoceptor 1 [13]): < 4.00
- pEC50 (P2Y purinoceptor 1 [14]): 7.68
- pEC50 (P2Y purinoceptor 1 [15]): 7.80
- pEC50 (P2Y purinoceptor 1 [16]): < 4.00
- pEC50 (P2Y purinoceptor 1 [17]): 7.90
- pEC50 (P2Y purinoceptor 1 [18]): 8.80
- pEC50 (P2Y purinoceptor 1 [19]): 5.75
- pEC50 (P2Y purinoceptor 1 [20]): 7.82
- pEC50 (P2Y purinoceptor 1 [21]): 5.28
- pEC50 (P2Y purinoceptor 1 [22]): 5.29
- pEC50 (P2Y purinoceptor 1 [23]): 8.31
- pEC50 (P2Y purinoceptor 1 [24]): 8.01
- pEC50 (P2Y purinoceptor 1 [25]): < 5.00
- pIC50 (P2Y purinoceptor 1 [26]): 6.44
- pEC50 (P2Y purinoceptor 1 [27]): 8.49

pEC50, pIC50: −log10 of the molar value.
